Test results reported in PubChem BioAssay (NCI).
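Cultured in 96-well plates, cells were exposed to test compound for 48 hours across five concentrations. GI50 = concentration required for 50% inhibition of growth.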

Assays:
Test in all cases: NCI-60 cell line screen, 48 h; in the data active = GI50 below about 0.43 µM; inactive = the rest
CAKI-1 renal = test system: CAKI-1 renal
UACC-257 melanoma = test system: UACC-257 melanoma
OVCAR-4 ovarian = test system: OVCAR-4 ovarian
UACC-62 melanoma = test system: UACC-62 melanoma
OVCAR-8 ovarian = test system: OVCAR-8 ovarian
SR leukemia = test system: SR leukemia
SK-MEL-28 melanoma = test system: SK-MEL-28 melanoma
TK-10 renal = test system: TK-10 renal
OVCAR-5 ovarian = test system: OVCAR-5 ovarian
KM12 colon = test system: KM12 colon
XF 498 CNS = test system: XF 498 CNS
DMS 273 small cell lung = test system: DMS 273 small cell lung
NCI-H522 lung = test system: NCI-H522 lung
SK-MEL-5 melanoma = test system: SK-MEL-5 melanoma
A549 NSCLC = test system: A549 NSCLC
HOP-62 NSCLC = test system: HOP-62 NSCLC
RPMI-8226 leukemia = test system: RPMI-8226 leukemia
SW-620 colon = test system: SW-620 colon
786-0 renal = test system: 786-0 renal
DLD-1 colon = test system: DLD-1 colon
NCI-H460 lung = test system: NCI-H460 lung
A498 renal = test system: A498 renal
HCT-116 colon = test system: HCT-116 colon
IGROV1 ovarian = test system: IGROV1 ovarian
SF-539 CNS = test system: SF-539 CNS
K-562 leukemia = test system: K-562 leukemia
SNB-78 CNS = test system: SNB-78 CNS
DMS 114 small cell lung = test system: DMS 114 small cell lung
HL-60(TB) leukemia = test system: HL-60(TB) leukemia
SF-295 CNS = test system: SF-295 CNS
HOP-18 NSCLC = test system: HOP-18 NSCLC
RXF-631 renal = test system: RXF-631 renal
M19-MEL melanoma = test system: M19-MEL melanoma
HOP-92 NSCLC = test system: HOP-92 NSCLC
HCC-2998 colon = test system: HCC-2998 colon
SNB-19 CNS = test system: SNB-19 CNS
OVCAR-3 ovarian = test system: OVCAR-3 ovarian
ACHN renal = test system: ACHN renal
U251 CNS = test system: U251 CNS
LXFL 529 NSCLC = test system: LXFL 529 NSCLC
SNB-75 CNS = test system: SNB-75 CNS
EKVX NSCLC = test system: EKVX NSCLC
KM20L2 colon = test system: KM20L2 colon
SN12C renal = test system: SN12C renal
M14 melanoma = test system: M14 melanoma
NCI-H23 lung = test system: NCI-H23 lung
RXF 393 renal = test system: RXF 393 renal
CCRF-CEM leukemia = test system: CCRF-CEM leukemia
MOLT-4 leukemia = test system: MOLT-4 leukemia
NCI-H322M lung = test system: NCI-H322M lung
SK-OV-3 ovarian = test system: SK-OV-3 ovarian
UO-31 renal = test system: UO-31 renal
SF-268 CNS = test system: SF-268 CNS
HCT-15 colon = test system: HCT-15 colon
HT29 colon = test system: HT29 colon

Measured: GI50

Cc1ccccc1NC1CC(C)(C)NC(C)(C)C1
inactive: CAKI-1 renal > 100 µM | UACC-257 melanoma > 100 µM | OVCAR-4 ovarian > 100 µM | UACC-62 melanoma > 100 µM | OVCAR-8 ovarian > 100 µM | SR leukemia > 100 µM | SK-MEL-28 melanoma > 100 µM | TK-10 renal > 100 µM | OVCAR-5 ovarian > 100 µM | KM12 colon > 100 µM | XF 498 CNS > 100 µM | DMS 273 small cell lung > 100 µM | NCI-H522 lung > 100 µM | SK-MEL-5 melanoma > 100 µM | A549 NSCLC > 100 µM | HOP-62 NSCLC > 100 µM | RPMI-8226 leukemia > 100 µM | SW-620 colon > 100 µM | 786-0 renal > 100 µM | DLD-1 colon > 100 µM | NCI-H460 lung > 100 µM | A498 renal > 100 µM | HCT-116 colon > 100 µM | IGROV1 ovarian > 100 µM | SF-539 CNS > 100 µM | K-562 leukemia > 100 µM | SNB-78 CNS > 100 µM | DMS 114 small cell lung > 100 µM | HL-60(TB) leukemia 88.6 µM | SF-295 CNS > 100 µM | HOP-18 NSCLC > 100 µM | RXF-631 renal > 100 µM | M19-MEL melanoma > 100 µM | HOP-92 NSCLC > 100 µM | HCC-2998 colon > 100 µM | SNB-19 CNS > 100 µM | OVCAR-3 ovarian > 100 µM | ACHN renal > 100 µM | U251 CNS > 100 µM | LXFL 529 NSCLC > 100 µM | SNB-75 CNS > 100 µM | EKVX NSCLC > 100 µM | KM20L2 colon > 100 µM | SN12C renal > 100 µM | M14 melanoma > 100 µM | NCI-H23 lung > 100 µM | RXF 393 renal 64.6 µM | CCRF-CEM leukemia > 100 µM | MOLT-4 leukemia > 100 µM | NCI-H322M lung > 100 µM | SK-OV-3 ovarian > 100 µM | UO-31 renal 42.3 µM | SF-268 CNS > 100 µM | HCT-15 colon > 100 µM | HT29 colon > 100 µM
